# From PubChem BioAssay AID588453 (National Center for Advancing Translational Sciences (NCATS), 2011)
# By UniProt entry, the sequences of proteins in these tests, tags left out.
# UniProt O89049, whole entry, looked up: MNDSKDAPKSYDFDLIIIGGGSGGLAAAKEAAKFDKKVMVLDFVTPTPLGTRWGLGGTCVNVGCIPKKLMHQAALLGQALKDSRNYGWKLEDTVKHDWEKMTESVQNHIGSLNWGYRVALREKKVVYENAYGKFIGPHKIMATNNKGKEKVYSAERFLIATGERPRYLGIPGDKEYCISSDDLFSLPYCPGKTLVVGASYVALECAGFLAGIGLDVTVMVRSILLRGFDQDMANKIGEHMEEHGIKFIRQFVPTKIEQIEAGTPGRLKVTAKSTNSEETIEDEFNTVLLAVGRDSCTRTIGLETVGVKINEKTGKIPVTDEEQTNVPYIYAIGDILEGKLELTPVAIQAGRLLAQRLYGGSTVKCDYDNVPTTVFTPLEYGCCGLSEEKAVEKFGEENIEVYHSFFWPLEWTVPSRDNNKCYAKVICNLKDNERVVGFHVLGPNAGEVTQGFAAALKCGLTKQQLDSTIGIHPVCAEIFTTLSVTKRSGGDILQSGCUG
# The entries are a selection whose mix differs from that of the whole data set. Records with an inconclusive call do not appear. A call without a number means that no potency is given here. The source made the active and inactive calls. The call rests on the fitted dose curve; in most records, active means well fitted inhibition curve with a large enough effect; inconclusive means small, poorly fitted or top-dose-only effect; inactive means no such curve, though single readings can be large or run the other way.
# Target: Thioredoxin reductase 1, cytoplasmic (Rattus norvegicus) (UniProt O89049)
# Test: qHTS Assay for Inhibitors of Mammalian Selenoprotein Thioredoxin Reductase 1 (TrxR1): qHTS; further: nearly all actives have a fitted effect of over 65% in size
# Details: recombinant rTrxR1, NADPH fluorescence consumption, selenite substrate; series mostly up to 114 µM
# Potency means the concentration at half of the fitted maximal effect.
SMILES,"activity change, negative = inhibition",Potency
CCCOP(=S)(Nc1nc(N)cc(=O)[nH]1)OCCC,inactive,
COc1cc(C2NCCC3(OCCO3)C2(C)C)cc(OC)c1OC (stereo not drawn),inactive,
CCOP(=O)(Nc1cccc2ccccc12)OCC,inactive,
O=[As](O)(O)c1cccnc1,inactive,
COc1cc(C(=O)NCC2(N3CCOCC3)CCCCC2)cc(Cl)c1OC(C)C,inactive,
CS(=O)(=O)c1ccc(Cl)c(NC(=O)COC(=O)C(O)(c2ccccc2)c2ccccc2)c1,inactive,
O=C(OC1CN2CCC1CC2)c1ccc(Cl)cc1 (stereo not drawn),inactive,
CN(C(=O)Cc1ccc(Cl)c(Cl)c1)[C@@H]1CC[C@]2(CCCO2)C[C@H]1N1CCCC1,inactive,
Cc1cccc(OCC(=O)OC2CN3CCC2CC3)c1 (stereo not drawn),inactive,
O=[As](O)(c1cccc(O)c1)c1cccc(O)c1,inactive,
NC(=O)Nc1ccc([As](=O)(O)O)cc1,inactive,
O=[N+]([O-])c1ccc2c(c1)nnn2O,inactive,
CN(C(=O)Cc1ccc(Cl)c(Cl)c1)[C@H]1CC[C@@]2(CCCO2)C[C@@H]1N1CCCC1,inactive,
N#CCCN(C(=O)COC(=O)C(O)(c1ccccc1)c1ccccc1)c1ccc(F)cc1,inactive,
CCOP1(=S)c2c(C)nn(CCC#N)c2N=C(c2ccc(F)cc2)N1C (stereo not drawn),inactive,
CN(C(=O)Cc1ccccc1)[C@@H]1CC[C@]2(CCCO2)C[C@H]1N1CCCC1,inactive,
CS(=O)(=O)c1cc([N+](=O)[O-])c2no[n+]([O-])c2c1,,active: 8.91 µM
CCOP1(=S)c2c(C)nn(CCC#N)c2N=C(c2ccccc2F)N1C (stereo not drawn),inactive,
O=P(Nc1nccs1)(Oc1ccccc1)Oc1ccccc1,inactive,
O=P(Nc1nccs1)(c1ccccc1)c1nc2ccccc2s1 (stereo not drawn),,active: 3.55 µM
Nc1ccccc1[As](=O)(O)c1ccccc1,inactive,
O=C(O)COc1ccc([As](=O)(O)O)cc1[N+](=O)[O-],inactive,
O=P1(Nc2ncccn2)COc2ccccc2OC1,inactive,
Cc1ccc(OCC(=O)OC2CN3CCC2CC3)cc1 (stereo not drawn),inactive,

SMILES,"activity change, negative = inhibition",Potency
O=[As](O)(c1cccs1)c1cccs1,inactive: -2.38% [at 2.29 µM],
O=P1(Nc2ccc(Br)cn2)COc2ccccc2OC1,inactive,
NS(=O)(=O)c1cccc(NC(=O)COC(=O)C(O)(c2ccccc2)c2ccccc2)c1,inactive,
Nc1cccc([As](=O)(O)c2ccccc2)c1,inactive,
Cc1nn(-c2ccccc2)c2c1P(=O)(N1CCOCC1)N(C)C(c1ccccc1)=N2 (stereo not drawn),inactive,
CC1CCC(C(C)C)C(OP(=O)(Nc2ccccn2)c2ccccc2)C1 (stereo not drawn),inactive,
Cc1ccc(C(=O)OC2CN3CCC2CC3)cc1 (stereo not drawn),inactive,
COc1cc([N+](=O)[O-])ccc1[N+](=O)[O-],inactive,
O=C(/C=C/c1ccccc1)OC1CN2CCC1CC2 (stereo not drawn),inactive,
CCCC1OP(=O)(Nc2ccccc2)OCC1CC (stereo not drawn),inactive,
CN(C)C1(CNC(=O)c2ccc(S(C)(=O)=O)cc2)CCCCC1,inactive,
COc1ccccc1CNC(=O)COC(=O)C(O)(c1ccccc1)c1ccccc1,inactive,
CC1(CBr)Cn2c(nc3ccccc3c2=O)S1 (stereo not drawn),inactive,
CC(C)/C=N\N=C(\N)N[N+](=O)[O-],inactive,
CCOP(=O)(Nc1ccc(C)cn1)OCC,inactive,
O=P1(Nc2ccccn2)COc2ccccc2OC1,inactive,
CCC1=CC2Cc3nc4ccc(Cl)cc4c(N)c3C(C1)C2 (stereo not drawn),inactive,
CCOP(=O)(NC(=NC(C)c1ccccc1)NC(C)c1ccccc1)OCC (stereo not drawn),inactive,
Clc1n[nH]nc1-c1nn[nH][15n]1,inactive,
CCOC(=O)c1ccc(NC(=O)C(C)(CCl)SC)cc1 (stereo not drawn),inactive,
O=C(OC1CN2CCC1CC2)c1cccc([N+](=O)[O-])c1 (stereo not drawn),inactive,
CCOP(=O)(Nc1cccc2cccnc12)OCC,inactive: 17.4% [at 0.457 µM],
CCC(C)N(CC(C)C)C(=S)SC(NC(C)=O)C(Cl)(Cl)Cl (stereo not drawn),,active: 50.1 µM
COP1(=S)c2c(C)nn(CCC#N)c2N=C(c2ccc(F)cc2)N1C (stereo not drawn),inactive,

SMILES,"activity change, negative = inhibition",Potency
O=C(COc1ccccc1)OC1CN2CCC1CC2 (stereo not drawn),inactive,
O=C(Nc1ccncc1[N+](=O)[O-])c1ccc([N+](=O)[O-])cc1[N+](=O)[O-],inactive,
CCOC(=O)Nc1cccc([As](=O)(O)O)c1,inactive,
O=[N+]([O-])c1ccc(Nc2ccc(Oc3ccc([N+](=O)[O-])cc3[N+](=O)[O-])cc2)c([N+](=O)[O-])c1,inactive: 4.44% [at 2.29 µM],
O=P(Nc1ccccn1)(c1cccc2ccccc12)c1cccc2ccccc12,inactive,
Cc1cc(SC(NC=O)C(Cl)(Cl)Cl)ncn1 (stereo not drawn),,active: 14.1 µM
CC1CCNP(=O)(N(CCCl)CCCl)O1 (stereo not drawn),inactive,
CCCCOc1ccc(C(=O)NCC2(N3CCCCC3)CCCCC2)cc1OC,inactive,
COC(=O)C1(C)COP(=O)(N2CCCCCC2)OC1 (stereo not drawn),inactive: 1.42% [at 11.4 µM],
CC(C)c1ccc(OP(=O)(Nc2ccccn2)Oc2ccccc2F)cc1 (stereo not drawn),inactive,
ClCCSc1nnc(-c2cccnc2)o1,inactive,
O=Cc1ccc(NCCCl)cc1,inactive,
CC(C)NC(=O)NP(=O)(Oc1ccccc1)Oc1ccccc1,inactive,
CCN(CC)C(=S)SC(NC=O)C(Cl)(Cl)Cl (stereo not drawn),inactive,
O=C(OC1CN2CCC1CC2)c1cccc2[nH]cnc12 (stereo not drawn),inactive,
O=[N+]([O-])c1cc([N+](=O)[O-])c(-c2ccn[nH]2)s1,,active: 3.16 µM
C[As](=O)(O)c1cccc(C(=O)O)c1,inactive,
O=[As](O)(c1ccc(O)cc1)c1ccccc1O,inactive,
COc1cc(C(=O)NCC2(N3CCOCC3)CCCCC2)ccc1OCC(C)C,inactive,
Cc1ccc2nc3c(c(C)c2c1)CC(C(Cl)Cl)S3 (stereo not drawn),inactive,
Cc1ccc(OP(=O)(Nc2ccc([N+](=O)[O-])cn2)Oc2ccc(C)cc2)cc1,inactive,
COc1ccc(N/C(=N/P(=O)(N2CCOCC2)N2CCOCC2)N2CCOCC2)cc1,inactive,
O=C(OC1CN2CCC1CC2)C12CC3CC(CC(C3)C1)C2 (stereo not drawn),inactive,
Cc1cc(=O)[nH]c(N[N+](=O)[O-])n1,inactive,

SMILES,"activity change, negative = inhibition",Potency
Cc1c2c(nc3ccccc13)SC(C(Cl)Cl)C2 (stereo not drawn),inactive,
COc1ccc2nc(NP(=O)(c3ccccc3)c3ccccc3)sc2c1,inactive,
COc1cc(I)ccc1[As](=O)(O)O,,active: 44.7 µM
O=P1(N(CCCl)CCCl)OCCCN1CCCl (stereo not drawn),inactive,
O=P1(N(CCCl)CCCl)Nc2ccccc2N1,inactive,
Nc1cc(N)c2nonc2c1[N+](=O)[O-],inactive,
CC(C)CC(=O)NC(Sc1ccc(Cl)cc1)C(Cl)(Cl)Cl (stereo not drawn),inactive,
Oc1ccccc1CNc1ccccn1,inactive,
NC(=O)c1cc([N+](=O)[O-])cc([N+](=O)[O-])c1N,inactive,
O=[N+]([O-])c1cc2c(cc1[N+](=O)[O-])OCO2,inactive,
Cc1ccc(N/C(=N/P(=O)(N2CCOCC2)N2CCOCC2)N2CCOCC2)cc1,inactive,
COc1ccccc1OP(=O)(Nc1ccc(C)cn1)Oc1ccccc1OC,inactive,
Cc1ccc(OP(=O)(Nc2nccs2)Oc2ccc(C)cc2)cc1,inactive,
CN1CCCC(OC(=O)C(c2ccccc2)c2ccccc2)C1 (stereo not drawn),inactive,
Nc1c(O)cc([N+](=O)[O-])cc1[N+](=O)[O-],inactive,
CCN(N=Nc1nonc1N)c1nonc1N,inactive,
Nc1cccc2ccc([As](=O)(O)O)cc12,inactive: 12% [at 2.29 µM],
CC(=O)Nc1ccc([As](=O)(O)O)cc1,inactive,
O=C(O)c1ccccc1[As](=O)(O)O,,active: 7.08 µM
CCCC1OP(N)(=O)OCC1CC (stereo not drawn),inactive: 2.63% [at 2.29 µM],
O=P(Nc1nc2ccc(Cl)cc2s1)(c1ccccc1)c1ccccc1,inactive,
Cc1cc(SC(NC(=O)c2ccc(F)cc2)C(Cl)(Cl)Cl)ncn1 (stereo not drawn),inactive,
CCOP(=O)(Nc1ccccc1)OCC,inactive,
Cc1ccc(NP(=O)(Oc2ccccc2F)Oc2ccccc2F)nc1,inactive,

SMILES,"activity change, negative = inhibition",Potency
CC(C)(C)C(=O)NC(Sc1ccncn1)C(Cl)(Cl)Cl (stereo not drawn),,active: 4.47 µM
O=[N+]([O-])c1ncn(CCn2ncnc2[N+](=O)[O-])n1,inactive,
COC(=O)C1(C)COP(=O)(Nc2ccccc2)OC1 (stereo not drawn),inactive: 11.7% [at 11.4 µM],
O=C(O)CNc1ccc([As](=O)(O)O)cc1,inactive,
Cc1cc(C=O)ccc1N(CCCl)CCCl,inactive,
O=P1(N(CCCl)CCCl)OCCCS1 (stereo not drawn),inactive: -1.79% [at 2.29 µM],
O=P(/N=c1/nc(-c2ccccc2)n(-c2ccccc2)s1)(Nc1ccccc1)Nc1ccccc1,inactive,
O=C(Nc1cc([As](=O)(O)O)ccc1O)c1ccccc1,inactive,
Nc1ccc([As](=O)(O)c2ccc(N)cc2)cc1,inactive,
CCN(/C(=N/P(=O)(N1CCOCC1)N1CCOCC1)N1CCOCC1)c1ccc(OC)cc1,inactive,
CC(C)=N/N=C(\N)N[N+](=O)[O-],inactive,
CN(C)C(=O)OCCc1n(C)cc[n+]1C,inactive,
CC1CCN(C(=O)Oc2c(Cl)cc(Cl)c3cccnc23)CC1,inactive,
COc1ccc(C2=NCC(CBr)S2)cc1 (stereo not drawn),inactive,
O=[N+]([O-])c1cccc2n[nH]nc12,inactive,
CC(=O)N1C2C3N(C(C)=O)C1C1N(C(C)=O)C(C(N1C(C)=O)N3C(C)=O)N2C(C)=O,inactive,
Cc1ccc(NP(=O)(Oc2ccccc2)Oc2ccccc2)nc1,inactive,
CCc1nc2c(n1)c1c(non1O)c1c2no[n+]1[O-],,active: 11.2 µM
O=[N+]([O-])c1cc([N+](=O)[O-])c(CCNc2ccccc2)c([N+](=O)[O-])c1,inactive,
COc1cccc([N+](=O)[O-])c1[N+](=O)[O-],inactive,
CC(C)C(=O)NC(Sc1ccccc1)C(Cl)(Cl)Cl (stereo not drawn),inactive,
O=P(Nc1nccs1)(c1ccccc1)c1ccccc1,inactive,
